Values of other authors, collected in patent US8088918B2, “Noncardiotoxic pharmaceutical compounds” (Williamsburg Holdings LLC, priority 2004, dated 2012).

Conditions: parent drugs; cited from earlier work

oxybutynin
pKa: 6.96
